Values of other authors as cited in paper PMC9053952 (RSC Advances, 2020).

The chains behind the UniProt entries cited, without tags or fusion partners. Where a name states a change or a piece, a line headed by the entry shows the natural chain unless it says otherwise.
UniProt Q92847, whole entry: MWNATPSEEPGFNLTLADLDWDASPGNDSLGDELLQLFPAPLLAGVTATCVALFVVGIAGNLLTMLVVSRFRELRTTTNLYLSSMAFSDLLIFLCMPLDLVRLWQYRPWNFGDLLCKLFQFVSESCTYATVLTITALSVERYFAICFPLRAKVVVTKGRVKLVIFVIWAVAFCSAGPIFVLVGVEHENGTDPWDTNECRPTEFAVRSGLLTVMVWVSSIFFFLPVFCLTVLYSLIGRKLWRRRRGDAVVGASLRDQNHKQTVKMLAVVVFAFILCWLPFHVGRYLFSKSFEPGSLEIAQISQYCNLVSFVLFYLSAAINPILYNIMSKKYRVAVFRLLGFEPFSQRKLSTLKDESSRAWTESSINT
UniProt P30550: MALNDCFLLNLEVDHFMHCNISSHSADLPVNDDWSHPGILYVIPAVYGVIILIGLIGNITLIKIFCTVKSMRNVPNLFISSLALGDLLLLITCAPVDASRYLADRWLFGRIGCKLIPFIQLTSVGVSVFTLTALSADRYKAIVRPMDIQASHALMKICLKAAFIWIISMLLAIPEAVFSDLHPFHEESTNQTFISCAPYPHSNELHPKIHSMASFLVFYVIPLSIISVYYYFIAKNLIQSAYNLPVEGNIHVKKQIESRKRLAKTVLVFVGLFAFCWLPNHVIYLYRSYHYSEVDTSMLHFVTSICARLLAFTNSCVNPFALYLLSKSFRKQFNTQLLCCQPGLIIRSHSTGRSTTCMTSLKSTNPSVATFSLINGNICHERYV

Columns and labels:
GHSR-1a = GHSR-1a (Homo sapiens, UniProt Q92847); conditions: cited from earlier work
GRPR = GRPR (Homo sapiens, UniProt P30550); conditions: parent peptide, cited from earlier work

Substance | IC50 (GHSR-1a; HEK293 cells transfected with GHSR-1a, parent peptide) [nM] | affinity for GHSR-1a (in words) (GHSR-1a) | affinity for GRPR (in words) (GRPR) | IC50 (GRPR; parental PC-3 cells) [nM]
[Dpr(octanoyl)^3,Thr^8]ghrelin(1–8) amide [Compound 2] | 3.3 | excellent affinity for GHSR-1a | – | –
[DTyr^6,βAla^11,Phe^13,Nle^14]bombesin(6–14) amide [Compound 3] | – | – | very high affinity for GRPR | 0.7
